Test results published in PMC6085299 (Nature Communications, 2018).
pKi: −log10 of the molar value.

By UniProt entry, the sequences of proteins in these tests, tags left out. Residues count along the entry.
UniProt Q13526, 51-163 K77Q/K82Q limits assumed: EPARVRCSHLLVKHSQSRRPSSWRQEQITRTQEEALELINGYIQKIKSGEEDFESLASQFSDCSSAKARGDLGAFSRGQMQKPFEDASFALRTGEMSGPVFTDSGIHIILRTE

Target: Pin1 (Homo sapiens, UniProt Q13526, K77Q/K82Q)
Test: co-crystal structure ([…] Å), […]-HSQC NMR; Ki from chymotrypsin-coupled PPIase assay

O=[As]O[As]=O (stereo not shown) [ATO, Arsenic trioxide]
pKi: 6.94
